# pIC50: −log10 of the molar value.
# Test system: breast carcinoma MCF7
# Assay: In vitro cytotoxic activity (Calcein AM, 72 hours), MCF7
# Conditions: Homo sapiens, MCF7, 72 h, read-out: Cytotoxicity IC50 MCF7
compound,measurement,value
Cn1cnc2c(NCc3ccccc3)nc(NCCO)nc21 [OC],pIC50,3.88

# Source: US9023857B2, “Substituted 6-(2-aminobenzylamino)purine derivatives, their use as medicaments and preparations containing these compounds” (Univerzita Palackeho V Olomouci, priority 2009, dated 2015)
